Assay results as given in US9018214B2, “Bicyclic heterocycle compounds and their uses in therapy” (Astex Therapeutics Limited, priority 2011, dated 2015).
Counter-ions that a name gives are not always drawn. Like-named read-outs stand apart in the source and are kept apart here.

Biological target: BIR3 domain of human cIAP-1 (residues 267-363) (Homo sapiens (Human), UniProt Q13490)
Assay: cIAP-1 in vitro competitive displacement binding assay (fluorescence polarization; Probe A AVPIK(5&6FAM)-amide or Probe B AbuRPFK(5&6FAM)-amide)
Conditions: read-out: IC50 or PI cIAP1: IC50

Compound | IC50 | IC50 (Probe B AbuRPFK(5&6FAM)-amide)
COC[C@H]1CN[C@H](C)CN1CC(=O)N1CC(C)(C)c2cnc(C(OC)c3ccccc3)cc21 (stereo partly drawn) [Example 132, 1-{6-[Methoxy(phenyl)methyl]-3,3-dimethyl-1H,2H,3H-pyrrolo[3,2-c]pyridin-1-yl}-2-[(2R,5R)-2-(methoxymethyl)-5-methylpiperazin-1-yl]ethan-1-one dihydrochloride] | 45 nM | 
C[C@@H]1CN(CC(=O)N2CC(C)(C)c3cnc(Cc4ccc(F)cc4F)cc32)[C@@H](CN2CCCC2)CN1 [Example 220, 1-{6-[(2,4-Difluorophenyl)methyl]-3,3-dimethyl-1H,2H,3H-pyrrolo[3,2-c]pyridin-1-yl}-2-[(2R,5R)-5-methyl-2-(pyrrolidin-1-ylmethyl)piperazin-1-yl]ethan-1-one dihydrochloride] | 14 nM | 
CC(C)CC(F)(F)c1cnc2c(c1)N(C(=O)CN1C[C@@H](C)NC[C@@H]1CN1CCOCC1)CC2(C)C [Example 235, 1-[6-(1,1-Difluoro-3-methylbutyl)-3,3-dimethyl-1H,2H,3H-pyrrolo[3,2-b]pyridin-1-yl]-2-[(2R,5R)-5-methyl-2-(morpholin-4-ylmethyl)piperazin-1-yl]ethan-1-one] |  | 21 nM
